Measurements reported in EP0037781A1, “Phenyl alcoxy propanol amines, their preparation and their use as medicines” (PIERRE FABRE S.A., priority 1980, dated 1981).

Settings: water

iso^pro^pylamino-3 (indanyl-2 oxy)-1 propanol-2 fumarate [Exemple 13]
Solubilités : Soluble dans l'eau: 10%
